Values quoted from earlier work in US20180338982A1, “Cooperative Medication Combination Systems” (priority 2017, published 2018).

Details: Table 1, components of "Syncpress" (hypertension)

Cl.Clc1cccc(Cl)c1NC1=NCCN1 [Clonidine, Clonidine Hydrochloride]
Half-life: 12 h
